# Source: patent publication US9783547B2, “Water soluble 4-azapodophyllotoxin analogs” (CENTRE NATIONAL DE LA RECHERCHE SCIENTIFIQUE (CNRS), priority 2014, dated 2017)
# Tested on: colon 26 carcinoma
# Assay: Antitumor activity in colon 26 carcinoma bearing mice
# Details: for Drug death (day of death): deaths/animals; for Note (activity / toxicity assessment): hydrochloride
# [1] = 31 mg/kg i.p. days 4, 5, 11, 12, 14, 15
# [2] = 50 mg/kg i.p. days 4, 5, 11, 12, 14, 15
smiles,measurement,setting,value
"COc1cc(Nc2c3c(nc4cc5c(cc24)OCO5)CCCC3=O)cc(OC)c1OC.Cl [SGR307.HCl, 6,7-(Methylenedioxy)-9-(3,4,5-trimethoxyphenylamino)-3,4-dihydroacridin-1(2H)-one, hydrochloride]",Drug death (day of death),[1],0/5
same,Note (activity / toxicity assessment),[1],not toxic; also recorded: highly active
same,Drug death (day of death),[2],0/5
same,Note (activity / toxicity assessment),[2],not toxic; also recorded: highly active
same,Drug death (day of death),"80.6 mg/kg i.p. days 4, 5, 11, 12, 14, 15, days of death 7, 8, 11, 2d15",5/5

# Entries after “also recorded” stand apart in the source; their conditions may differ.
